Measured values published in PMC7978378, “Discovery of novel dual adenosine A1/A2A receptor antagonists using deep learning, pharmacophore modeling and molecular docking” (PLoS Computational Biology, 2021).

System: A1/A2A ARs
Assay: cAMP functional assay, summarised over both receptors
Conditions: range over A1AR and A2AAR cAMP assays

Q: For COc1cccc(C(=O)n2nc(-c3ccccc3Cl)nc2N)c1 [Compound C8], which “pIC50 towards A1/A2A ARs” value is on record?
A: The value was 6.31–6.78.
